Here are results for 54 molecules from PubChem BioAssay AID1984 (Sanford-Burnham Center for Chemical Genomics, 2009).

The chains behind the UniProt entries cited, without tags or fusion partners. Residues count along the entry.
UniProt Q05BA5, 1-1403: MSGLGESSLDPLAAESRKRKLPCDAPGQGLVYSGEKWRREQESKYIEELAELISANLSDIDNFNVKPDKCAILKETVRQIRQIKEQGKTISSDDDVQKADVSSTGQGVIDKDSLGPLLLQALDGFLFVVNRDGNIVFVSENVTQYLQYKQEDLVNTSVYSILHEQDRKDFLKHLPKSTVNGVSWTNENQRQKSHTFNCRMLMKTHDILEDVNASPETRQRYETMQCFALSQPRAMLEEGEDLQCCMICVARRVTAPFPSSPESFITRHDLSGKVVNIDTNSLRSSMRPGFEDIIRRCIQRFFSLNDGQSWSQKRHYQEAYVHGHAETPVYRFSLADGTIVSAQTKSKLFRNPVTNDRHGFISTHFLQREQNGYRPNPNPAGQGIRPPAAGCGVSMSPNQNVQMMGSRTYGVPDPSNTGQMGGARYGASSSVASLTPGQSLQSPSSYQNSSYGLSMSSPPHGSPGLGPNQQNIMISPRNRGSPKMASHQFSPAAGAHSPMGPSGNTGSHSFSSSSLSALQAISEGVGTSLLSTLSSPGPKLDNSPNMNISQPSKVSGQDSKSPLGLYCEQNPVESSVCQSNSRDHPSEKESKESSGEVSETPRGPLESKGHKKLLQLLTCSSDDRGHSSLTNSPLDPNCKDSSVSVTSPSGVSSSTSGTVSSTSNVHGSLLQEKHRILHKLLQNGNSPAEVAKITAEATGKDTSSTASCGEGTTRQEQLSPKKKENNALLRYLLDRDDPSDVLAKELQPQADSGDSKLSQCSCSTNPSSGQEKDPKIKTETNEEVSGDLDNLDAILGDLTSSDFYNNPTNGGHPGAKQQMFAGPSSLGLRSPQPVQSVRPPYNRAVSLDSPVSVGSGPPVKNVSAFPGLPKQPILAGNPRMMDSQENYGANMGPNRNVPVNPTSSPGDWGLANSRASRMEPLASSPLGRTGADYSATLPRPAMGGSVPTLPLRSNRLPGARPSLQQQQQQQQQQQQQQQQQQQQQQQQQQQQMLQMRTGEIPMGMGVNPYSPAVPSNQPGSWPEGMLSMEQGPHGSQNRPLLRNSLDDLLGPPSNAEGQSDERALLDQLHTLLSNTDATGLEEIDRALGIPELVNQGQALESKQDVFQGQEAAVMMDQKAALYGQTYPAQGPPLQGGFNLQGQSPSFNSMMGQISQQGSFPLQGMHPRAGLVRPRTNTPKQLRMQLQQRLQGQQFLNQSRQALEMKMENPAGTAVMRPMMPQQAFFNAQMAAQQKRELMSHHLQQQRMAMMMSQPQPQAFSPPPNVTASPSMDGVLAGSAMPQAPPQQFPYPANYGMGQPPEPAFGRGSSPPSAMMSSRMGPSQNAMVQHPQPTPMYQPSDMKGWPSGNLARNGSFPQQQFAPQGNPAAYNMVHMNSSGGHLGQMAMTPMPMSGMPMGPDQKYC

The list shows a part of the results, in another mix than the full data. The source made the active and inactive calls.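 How the source made its calls: active means EGFP signal decrease of at least 30% at 10 µM or well 3 SD below plate mean, unless failing retest; inactive means the rest, including hits failing retest or dose response.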

This assay addresses p/CIP-EGFP fusion (nuclear receptor coactivator 3, mouse) (UniProt Q05BA5). Briefly: compounds lowering mouse p/CIP (NCOA3) protein levels – fluorescence, F442A cells, EGFP fusion, primary screen (AID 1984). The following applies: 16 h, at 10 µM, stronger effect = higher value.
As for `Cc1cc(C)cc(N(C(=O)c2ccccc2)C2CCN(C(=O)OC(C)(C)C)CC2)c1`, the decrease of EGFP signal is inactive: -7.6%.

Take `O=C(NCC1(N2CCOCC2)CCCCC1)c1cc2ccccc2o1`: the decrease of EGFP signal is inactive: -4.7%.

Turning to `O=C(OC1CN2CCC1CC2)C1c2ccccc2Oc2ccccc21` (centres undefined), the decrease of EGFP signal is inactive: -4.3%.

For `N#CC1(Nc2ccccc2)CCN(Cc2ccccc2)CC1`, the decrease of EGFP signal was inactive: -10%.

For the molecule `CCOC(=O)N1CCC(Nc2ccc(OC)cc2)CC1`, the decrease of EGFP signal was inactive: -12.7%.

`CC(C)(C)OC(=O)N1CCC(N(C(=O)c2ccccc2)c2ccc(F)cc2)CC1`: the decrease of EGFP signal is inactive: 2.5%.

Regarding `COc1ccc(C(=O)NCC2(N3CCCCC3)CCCCC2)c(OC)c1OC`, the decrease of EGFP signal is inactive: -7.1%.

Regarding `COc1ccc(C(=O)NCC2(N3CCCCC3)CCCCC2)cc1`, the decrease of EGFP signal was inactive: -4.3%.

`O=C(NCC1(N2CCCCC2)CCCCC1)c1ccc(=O)[nH]c1`: the decrease of EGFP signal is inactive: 13.7%.

With `CSc1ccccc1C(=O)NCC1(N2CCCCC2)CCCCC1`, the decrease of EGFP signal was inactive: -13.5%.

Turning to `Cc1ccc(OCC(C)C)c(CN(CCCl)CCCl)c1`, the decrease of EGFP signal is inactive: -13%.

As to `COc1cc(C(=O)NCC2(N(C)C)CCCCC2)ccc1OC(F)F`, the decrease of EGFP signal was inactive: 6%.

Regarding `CCOC(=O)N1CCC(Nc2cccc(C)c2)CC1`, the decrease of EGFP signal is inactive: -10.1%.

For the molecule `CCOc1ccc(C)cc1CN(CCCl)CCCl`, the decrease of EGFP signal was inactive: -14.5%.

Turning to `CCOC(=O)N1CCC(Nc2ccc(F)cc2)CC1`, the decrease of EGFP signal is inactive: -4.6%.

Turning to `COc1ccc(NC2CCN(CCc3ccccc3)CC2)c(OC)c1`, the decrease of EGFP signal is inactive: -15.8%.

With `O=C(NCC1(N2CCCCC2)CCCCC1)c1ccc(F)cc1`, the decrease of EGFP signal was inactive: -6.3%.

On to `O=C(NCC1(N2CCCCC2)CCCCC1)c1cccc(C(F)(F)F)c1`, for which the decrease of EGFP signal is inactive: -2%.

Turning to `O=C(NCC1(N2CCOCC2)CCCCC1)c1cc(=O)[nH]c2ccccc12`, the decrease of EGFP signal is inactive: -0.7%.

Take `COc1cc(C(=O)NCC2(N3CCCCC3)CCCCC2)ccc1OC(F)F`: the decrease of EGFP signal is inactive: -2.3%.

As for `COc1ccc(NC2CCN(C(=O)OC(C)(C)C)CC2)cc1`, the decrease of EGFP signal is inactive: -13.8%.

Take `CN1CCN(CCOC(=O)C(O)(c2ccccc2)c2ccccc2)CC1`: the decrease of EGFP signal is inactive: -4.1%.

Regarding `O=C(NCC1(N2CCCCC2)CCCCC1)c1ccc(OC(F)F)cc1`, the decrease of EGFP signal is inactive: -10.1%.

With `N#CC1(Nc2ccccc2)CCN(CCc2ccccc2)CC1`, the decrease of EGFP signal is inactive: -5.3%.

On to `CCN1CCC(Nc2ccc(Cl)cc2)CC1`, for which the decrease of EGFP signal was inactive: -10.4%.

In the case of `O=C(NCC1(N2CCCCC2)CCCCC1)c1cccc([N+](=O)[O-])c1`, the decrease of EGFP signal is inactive: -0.8%.

With `CCCOc1ccc(C(=O)NCC2(N(C)C)CCCCC2)cc1OC`, the decrease of EGFP signal is inactive: -0.6%.

On to `CC(C)c1ccc(NC2CCN(C(=O)OC(C)(C)C)CC2)cc1`, for which the decrease of EGFP signal was inactive: -8.5%.

`CN(C)c1cccc(C(=O)NCC2(N3CCCCC3)CCCCC2)c1`: the decrease of EGFP signal is inactive: -3.9%.

For `COc1ccc(CN(CCCl)CCCl)cc1Cl`, the decrease of EGFP signal was inactive: -5.3%.

As to `COc1cc(OC)c(C(=O)NCC2(N(C)C)CCCCC2)cc1OC`, the decrease of EGFP signal was inactive: 15.9%.

Consider `CCOC(=O)N1CCC(Nc2ccc(C)cc2)CC1`, for which the decrease of EGFP signal is inactive: 2.3%.

`N/C(=N\O)c1c(N)no[n+]1[O-]`: the decrease of EGFP signal is inactive: -1.7%.

With `O=C(OC1CN2CCC1CC2)C1c2ccccc2C=Cc2ccccc21` (centres undefined), the decrease of EGFP signal is inactive: -2.2%.

Regarding `COc1ccc(C(=O)NCC2(N3CCOCC3)CCCCC2)cc1OC`, the decrease of EGFP signal is inactive: -9.7%.

For the molecule `CN(C)C1(CNC(=O)c2cccc(C#N)c2)CCCCC1`, the decrease of EGFP signal is inactive: -5.1%.

`CCCN1CCC(Nc2cc(OC)cc(OC)c2)CC1`: the decrease of EGFP signal was inactive: -7.8%.

`c1ccc(CN2CCC(Nc3ccccc3)CC2)cc1`: the decrease of EGFP signal is inactive: -6.4%.

For the molecule `N#Cc1ccc(C(=O)NCC2(N3CCCCC3)CCCCC2)cc1`, the decrease of EGFP signal is inactive: 9.3%.

Regarding `CC(C)(C)OC(=O)N1CCC(N(C(=O)c2ccccc2)c2ccc(Cl)cc2)CC1`, the decrease of EGFP signal is inactive: 5.2%.

`CCN1CCC(Nc2cccc(F)c2)CC1`: the decrease of EGFP signal is inactive: 3.1%.

For `CN(C)c1ccc(C(=O)NCC2(N3CCCCC3)CCCCC2)cc1`, the decrease of EGFP signal was inactive: 5.4%.

Turning to `COc1cc(OC)cc(C(=O)NCC2(N3CCCCC3)CCCCC2)c1`, the decrease of EGFP signal was inactive: -19.4%.

Consider `Fc1ccccc1NC1CCN(Cc2ccccc2)CC1`, for which the decrease of EGFP signal was inactive: 0.9%.

With `COc1cccc(C(=O)N(c2cc(C)cc(C)c2)C2CCN(C(=O)OC(C)(C)C)CC2)c1`, the decrease of EGFP signal is inactive: -5.3%.

Turning to `COc1cc(OC)cc(C(=O)NCC2(N3CCOCC3)CCCCC2)c1`, the decrease of EGFP signal is inactive: -1.4%.

As for `CCC(CO)(C(=O)OC1CN2CCC1CC2)c1ccccc1` (centres undefined), the decrease of EGFP signal was inactive: -3.9%.

Turning to `CN1CCC(Nc2ccc(Cl)cc2)CC1`, the decrease of EGFP signal was inactive: -3%.

`CCCOc1ccc(C)cc1CN(CCCl)CCCl`: the decrease of EGFP signal was inactive: -2.3%.

Turning to `CN1CCC(Nc2ccc(F)c(Cl)c2)CC1`, the decrease of EGFP signal was inactive: 10.9%.

With `CCOc1ncccc1C(=O)NCC1(N2CCOCC2)CCCCC1`, the decrease of EGFP signal was inactive: -3.3%.

`O=C(O)C1(Nc2ccccc2)CCN(Cc2ccccc2)CC1`: the decrease of EGFP signal was inactive: 1.6%.

Consider `CC(C)(C)OC(=O)N1CCC(Nc2ccccc2)CC1`, for which the decrease of EGFP signal was inactive: -6.8%.

With `CCCOc1ccc(C(=O)NCC2(N(C)C)CCCCC2)cc1`, the decrease of EGFP signal was inactive: 0.4%.
